Measured values from US10899738B2 (THE REGENTS OF THE UNIVERSITY OF MICHIGAN, priority 2016, dated 2021).

Sequences of proteins named here, by UniProt entry; tags and fusion partners are left off.
UniProt O00255, whole entry: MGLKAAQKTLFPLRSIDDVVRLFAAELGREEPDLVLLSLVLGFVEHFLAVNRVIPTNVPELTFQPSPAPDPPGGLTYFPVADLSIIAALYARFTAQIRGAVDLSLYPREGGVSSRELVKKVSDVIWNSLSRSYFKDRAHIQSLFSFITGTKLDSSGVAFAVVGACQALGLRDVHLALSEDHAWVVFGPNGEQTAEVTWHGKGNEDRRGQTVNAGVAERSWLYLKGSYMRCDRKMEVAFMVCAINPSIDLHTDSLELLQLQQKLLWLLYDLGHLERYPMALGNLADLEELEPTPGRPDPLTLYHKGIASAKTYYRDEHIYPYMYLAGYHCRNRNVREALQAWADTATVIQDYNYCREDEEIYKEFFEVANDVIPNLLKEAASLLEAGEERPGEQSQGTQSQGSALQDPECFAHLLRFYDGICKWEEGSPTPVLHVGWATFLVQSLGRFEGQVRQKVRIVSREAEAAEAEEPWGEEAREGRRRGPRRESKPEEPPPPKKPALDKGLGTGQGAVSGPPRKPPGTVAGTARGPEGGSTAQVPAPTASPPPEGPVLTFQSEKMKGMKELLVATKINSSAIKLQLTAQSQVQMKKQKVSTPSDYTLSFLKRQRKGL

Molecular target: menin protein (Homo sapiens (Human), UniProt O00255)
Conditions: read-out: Menin Binding Affinity IC50; FP competitive binding; menin protein 4 nM, FAM-MM2 probe 2 nM

## CCS(=O)(=O)c1ccc(N2CCC(C(=O)N3CCC(C4(C5CCCC5)NCCc5c(F)cccc54)CC3)CC2)cc1 (stereo not shown)
  IC50: 7.2 µM
